# “Also recorded” adds a separate entry of the source.
# By UniProt entry, the sequences of proteins in these tests, tags left out. Residues count along the entry.
# UniProt O00206, 24-839: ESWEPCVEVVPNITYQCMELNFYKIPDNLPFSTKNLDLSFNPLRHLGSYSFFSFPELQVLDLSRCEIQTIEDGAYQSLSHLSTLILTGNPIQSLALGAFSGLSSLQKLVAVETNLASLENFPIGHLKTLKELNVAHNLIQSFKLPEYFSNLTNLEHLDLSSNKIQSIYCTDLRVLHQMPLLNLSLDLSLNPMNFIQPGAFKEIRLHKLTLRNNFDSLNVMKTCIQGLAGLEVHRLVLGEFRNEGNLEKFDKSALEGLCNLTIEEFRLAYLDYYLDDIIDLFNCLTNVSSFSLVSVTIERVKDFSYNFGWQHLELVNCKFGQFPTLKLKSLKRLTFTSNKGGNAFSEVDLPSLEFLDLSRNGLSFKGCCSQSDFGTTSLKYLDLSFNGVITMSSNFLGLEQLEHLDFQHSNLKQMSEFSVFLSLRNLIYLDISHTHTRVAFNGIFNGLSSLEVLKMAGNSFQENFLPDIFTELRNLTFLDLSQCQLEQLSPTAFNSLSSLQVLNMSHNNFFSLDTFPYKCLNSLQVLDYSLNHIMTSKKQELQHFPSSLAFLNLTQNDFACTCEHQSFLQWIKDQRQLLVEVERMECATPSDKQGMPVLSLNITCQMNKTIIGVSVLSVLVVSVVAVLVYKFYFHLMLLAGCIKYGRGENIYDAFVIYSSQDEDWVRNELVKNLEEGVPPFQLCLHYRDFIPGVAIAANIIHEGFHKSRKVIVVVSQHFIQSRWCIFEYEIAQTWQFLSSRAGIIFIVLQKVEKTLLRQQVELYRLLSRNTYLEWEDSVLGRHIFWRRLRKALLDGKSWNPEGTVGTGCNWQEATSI
# UniProt Q9Y6Y9, 17-160: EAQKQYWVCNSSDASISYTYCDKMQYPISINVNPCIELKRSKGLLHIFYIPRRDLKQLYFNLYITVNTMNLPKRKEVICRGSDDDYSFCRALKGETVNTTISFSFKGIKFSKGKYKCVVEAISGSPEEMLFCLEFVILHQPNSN
# Target: T1, human TLR-4 (co-expressing MD-2) (Homo sapiens, UniProt O00206+Q9Y6Y9)
# T1 construct: host or cells: HEK-293
# Type: cell-based
substance,measurement,value
polymyxin-B,Inhibition of TLR4-signalling induced by patient saliva samples,significantly inhibited
same,Inhibition of TLR-4-signalling induced by sterile-filtered food extracts,blocked; also recorded: efficiently inhibited

# — patent US20130095094A1, “ASSAY” (University of Leicester, priority 2010, published 2013)
